Biological target: T1, PD-1Ig (extracellular domain of mouse PD-1 linked to the Fc portion of mouse IgG2a) (mouse, UniProt Q02242 25-169)
T1 construct: extracellular domain; Coated on ELISA plates and immobilized on the CM5 chip; also called mPD-1; not shown: Fc portion of mouse IgG2a
T1 sequence (looked up): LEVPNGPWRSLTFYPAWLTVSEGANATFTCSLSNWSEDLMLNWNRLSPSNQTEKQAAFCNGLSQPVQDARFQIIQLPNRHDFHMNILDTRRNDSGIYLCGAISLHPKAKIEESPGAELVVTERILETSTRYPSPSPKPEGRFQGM
Test: capture ELISA, PD-1Ig coated

B1: mouse B7-DCIg mutant D111S (Fc fusion)
chain: LFTVTAPKEVYTVDVGSSVSLECDFDRRECTELEGIRASLQKVENDTSLQSERATLLEEQLPLGKALFHIPSVQVRDSGQYRCLVICGAAWSYKYLTVKVKASYMRIDTRILEVPGTGEVQLTCQARGYPLAEVSWQNVSVPANTSHIRTPEGLYQVTSVLRLKPQPSRNFSCMFWNAHMKELTSAIIDPLSRMEPKVPRTW
notes: not shown: CH2-CH3 portion of human IgG1
ELISA (%) specific binding activity relative to wild type B7-DCIg: 0.3%
